Results as given in US10517867B2, “Posaconazole derivative, pharmaceutical composition and use thereof” (priority 2016, dated 2019).

Assay: Determination of solubility in deionized water (HPLC, external standard)
Settings: 25±2° C., after 30 min

With CC[C@@H]([C@H](C)OC(=O)OC(C)OC(=O)CNC(=O)CN(C)C(=N)NP(=O)([O-])[O-])n1ncn(-c2ccc(N3CCN(c4ccc(OC[C@@H]5CO[C@@](Cn6cncn6)(c6ccc(F)cc6F)C5)cc4)CC3)cc2)c1=O.[Na+].[Na+] (some centres unmarked) the Solubility was >50 mg/mL.
In the case of CC[C@@H]([C@H](C)OC(=O)OC(C)OC(=O)CN(C)C(=N)NP(=O)([O-])[O-])n1ncn(-c2ccc(N3CCN(c4ccc(OC[C@@H]5CO[C@@](Cn6cncn6)(c6ccc(F)cc6F)C5)cc4)CC3)cc2)c1=O.[Na+].[Na+] (some centres unmarked), the Solubility is reported as 45.8 mg/mL.
